Source: patent US7495109B2, “Nociceptin analogs” (dated 2009)

The chains behind the UniProt entries cited, without tags or fusion partners.
UniProt P41146, whole entry: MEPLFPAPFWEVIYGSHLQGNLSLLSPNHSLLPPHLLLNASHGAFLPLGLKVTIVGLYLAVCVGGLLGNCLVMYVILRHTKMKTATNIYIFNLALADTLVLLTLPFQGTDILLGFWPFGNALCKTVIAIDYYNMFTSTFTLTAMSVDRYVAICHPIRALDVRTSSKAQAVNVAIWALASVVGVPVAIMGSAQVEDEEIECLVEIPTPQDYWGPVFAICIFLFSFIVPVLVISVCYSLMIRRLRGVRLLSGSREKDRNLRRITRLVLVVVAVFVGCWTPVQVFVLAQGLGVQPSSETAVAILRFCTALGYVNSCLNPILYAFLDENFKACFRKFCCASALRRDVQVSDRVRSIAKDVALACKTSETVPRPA
UniProt P35372, whole entry: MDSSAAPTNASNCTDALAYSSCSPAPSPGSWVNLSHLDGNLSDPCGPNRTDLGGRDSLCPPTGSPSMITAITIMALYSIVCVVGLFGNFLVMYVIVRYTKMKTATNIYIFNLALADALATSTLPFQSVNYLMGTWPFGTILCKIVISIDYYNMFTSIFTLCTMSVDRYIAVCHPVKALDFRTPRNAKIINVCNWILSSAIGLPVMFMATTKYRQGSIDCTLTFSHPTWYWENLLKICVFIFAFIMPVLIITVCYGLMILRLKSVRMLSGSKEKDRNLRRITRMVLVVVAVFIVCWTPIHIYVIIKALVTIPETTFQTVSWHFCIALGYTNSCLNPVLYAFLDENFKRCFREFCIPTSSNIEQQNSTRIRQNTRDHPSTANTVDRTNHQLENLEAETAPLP

Key:
[1] = target: human opioid receptor-like receptor (ORL-1) (Homo sapiens, UniProt P41146); assay: Nociceptin affinity at the ORL1 receptor ([35S]GTPgS binding, HEK-293 membranes); details: read-out: Nociceptin Affinity calc Ki; Table 2; membranes from recombinant HEK-293 cells expressing human ORL-1
Method: Nociceptin affinity at the ORL1 receptor for preferred compounds was obtained using the following assay:
Membranes from recombinant HEK-293 cells expressing the human opioid receptor-like receptor (ORL-1) (Receptor Biology) were prepared by lysing cells in ice-cold hypotonic buffer (2.5 mM MgCl2, 50 mM HEPES, pH 7.4) (10 ml/10 cm dish) followed by homogenization with a tissue grinder/teflon pestle. Membranes were collected by centrifugation at 30,000×g for 15 min at 4° C. and pellets resuspended in hypotonic buffer to a final concentration of 1-3 mg/ml. Protein concentrations were determined using the BioRad protein assay reagent with bovine serum albumen as standard. Aliquots of the ORL-1 receptor membranes were stored at −80° C.
(§1) Functional SGTPgS binding assays were conducted as follows. ORL-1 membrane solution was prepared by sequentially adding final concentrations of 0.066 mg/ml ORL-1 membrane protein, […], […] and 0.20 nM [^35S]GTPgS to binding buffer (100 mM NaCl, 10 mM MgCl2, 20 mM HEPES, pH 7.4) on ice. The prepared membrane solution ([…]) was transferred to 96-shallow well polypropylene plates containing […] of 20× concentrated stock solutions of agonist prepared in DMSO. Plates were incubated for 30 min at room temperature with shaking. Reactions were terminated by rapid filtration onto 96-well Unifilter GF/B filter plates (Packard) using a 96-well tissue harvester (Brandel) and followed by three filtration washes with 200 ml ice-cold binding buffer (10 mM NaH2PO4, 10 mM Na2HPO4, pH 7.4). Filter plates were subsequently dried at 50° C. for 2-3 hours. Fifty ml/well scintillation cocktail (BetaScint; Wallac) was added and plates were counted in a Packard Top-Count for 1 min/well.
Data was analyzed using the curve fitting functions in GraphPad PRISMÔ, v.
as §1, with “well-polypropylene” for “well polypropylene”

Mu opioid receptor = Mu opioid receptor (Homo sapiens, UniProt P35372); assay: Affinity at the μ receptor ([35S]GTPγS binding, membranes); details: read-out: Mu Receptor Affinity calc Ki; Table 5; mu opioid receptor membrane solution
Method: Affinity at the μ receptor for compounds was obtained according to the following assay:
Mu opioid receptor membrane solution was prepared by sequentially adding final concentrations of 0.075 μg/μl of the desired membrane protein, 10 μg/ml saponin, 3 μM GDP and 0.20 nM [^35S]GTPγS to binding buffer (100 mM NaCl, 10 mM MgCl2, 20 mM HEPES, pH 7.4) on ice. The prepared membrane solution (190 μl/well) was transferred to 96-shallow well polypropylene plates containing 10 μl of 20× concentrated stock solutions of agonist prepared in DMSO. Plates were incubated for 30 min at room temperature with shaking. Reactions were terminated by rapid filtration onto 96-well Unifilter GF/B filter plates (Packard) using a 96-well tissue harvester (Brandel) and followed by three filtration washes with 200 μl ice-cold binding buffer (10 mM NaH2PO4, 10 mMNa2HPO4, pH 7.4). Filter plates were subsequently dried at 50° C. for 2-3 hours. Fifty μl/well scintillation cocktail (MicroScint20, Packard) was added and plates were counted in a Packard Top-Count for 1 min/well.
Data were analyzed using the curve fitting functions in GraphPad PRISM™, v.

| Compound | Ki [1] [nM] | Ki (Mu opioid receptor) [nM] |
| --- | --- | --- |
| O=C1Cc2ccccc2N1C1CCN(CC2CCCCCCC2)CC1 | 54.3 |  |
| CCC1C(=O)N(C2CCN(C3CCc4ccccc4C3)CC2)c2ccccc21 (centres unmarked) | 124 |  |
| CC=C1C(=O)N(C2CCN(C3CCc4ccccc4C3)CC2)c2ccccc21 (centres unmarked) | 16.7 | 23.3 |
| CCC1C(=O)N(C2CCN(C3CCC(C(C)C)CC3)CC2)c2ccccc21 (centres unmarked) | 0.86 |  |
| O=C1Cc2ccccc2N1C1CCN(CCC(c2ccccc2)c2ccccc2)CC1 | 12.5 |  |
| CC=C1C(=O)N(C2CCN(CCC(c3ccccc3)c3ccccc3)CC2)c2ccccc21 | 101 | 24 |
